# In ChEMBL document CHEMBL1255523, “Optimization of N-benzyl-benzoxazol-2-ones as receptor antagonists of macrophage migration inhibitory factor (MIF)” (Bioorg Med Chem Lett, 2010):
# Sequences of proteins named here, by UniProt entry; tags and fusion partners are left off. A change or cut given only in a name is not applied to a line headed by its entry.
# UniProt P14174: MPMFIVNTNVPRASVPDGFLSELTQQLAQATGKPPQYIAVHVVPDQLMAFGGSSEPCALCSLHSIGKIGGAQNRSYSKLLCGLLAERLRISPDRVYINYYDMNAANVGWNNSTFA
# UniProt P04233: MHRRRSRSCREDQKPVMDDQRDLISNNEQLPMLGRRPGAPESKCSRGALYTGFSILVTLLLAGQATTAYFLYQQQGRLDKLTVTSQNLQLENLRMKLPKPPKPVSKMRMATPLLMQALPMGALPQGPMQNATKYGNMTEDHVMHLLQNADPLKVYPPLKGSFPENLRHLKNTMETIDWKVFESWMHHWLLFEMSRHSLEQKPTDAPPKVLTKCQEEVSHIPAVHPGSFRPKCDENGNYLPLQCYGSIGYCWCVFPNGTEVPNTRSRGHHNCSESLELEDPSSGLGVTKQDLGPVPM
# Molecular target: MIF/CD74 (Macrophage migration inhibitory factor and HLA-DR antigens-associated invariant chain) (Homo sapiens) (UniProt P14174+P04233)
# Assay: Inhibition of human recombinant biotinylated MIF/CD74 interaction at up to 10 uM after 30 mins
# Assay type: protein assay
# Summary of the method: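 Bound MIF was detected with streptavidin-alkaline phosphatase and p-nitrophenylphosphate substrate. Compounds were tested over 500- to 5000-fold concentration ranges.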
row,inhibition [%],SMILES
1,10,Cc1ccc2oc(=O)n(Cc3ccc(O)cc3)c2c1
2,14,Cc1ccc2oc(=O)n(Cc3cccc(F)c3)c2c1
3,17,COc1cccc(Cn2c(=O)oc3ccc(F)cc32)c1
4,23,O=c1oc2ccc(O)cc2n1Cc1ccccc1
